Measured values reported in ChEMBL document CHEMBL1123166, “Design and synthesis of 2-(arylamino)-4(3H)-quinazolinones as novel inhibitors of rat lens aldose reductase” (J Med Chem, 1986).

Molecular target: Aldo-keto reductase family 1 member B1 (Rattus norvegicus, UniProt P07943)
Test: Compound was tested for its ability to inhibit crude aldose reductase obtained from rat lens
Outline: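 Crude enzyme prepared from rat lens. Reaction at pH 6.2 in 0.1 M phosphate buffer with 0.104 mM NADPH and 1.5 mM DL-glyceraldehyde as substrate. NADPH consumption followed at 340 nm against a blank lacking substrate. Percent inhibition from rate versus substrate-only control. IC50 from linear regression of log dose-response using at least three concentrations, three replicates each, for compounds exceeding 50% inhibition at 100 μM.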

pIC50: 7.70
Structure (SMILES): O=C1NC(=O)[C@@]2(CCOc3ccc(F)cc32)N1 [SORBINIL]

pIC50: −log10 of the molar value.
